Tested on: human red blood cells (hRBC)
Assay: Hemolysis (hemoglobin release assay)
Conditions: mean

Structure (SMILES): CC[C@H](C)[C@H](NC(=O)CN)C(=O)NCC(=O)N[C@@H](C)C(=O)N[C@H](C(=O)N[C@@H](CC(C)C)C(=O)N[C@@H](CCCCN)C(=O)N[C@H](C(=O)N[C@@H](CC(C)C)C(=O)N[C@H](C(=O)N[C@H](C(=O)NCC(=O)N[C@@H](CC(C)C)C(=O)N1CCC[C@H]1C(=O)N[C@@H](C)C(=O)N[C@@H](CC(C)C)C(=O)N[C@H](C(=O)N[C@@H](CO)C(=O)N[C@@H](Cc1c[nH]c2ccccc12)C(=O)N[C@H](C(=O)N[C@@H](CCCCN)C(=O)N[C@@H](CCCNC(=N)N)C(=O)N[C@@H](CCCCN)C(=O)N[C@@H](CCCNC(=N)N)C(=O)N[C@@H](CCC(N)=O)C(=O)N[C@@H](CCC(N)=O)C(N)=O)[C@@H](C)CC)[C@@H](C)CC)[C@@H](C)O)[C@@H](C)O)C(C)C)C(C)C [Melittin]
- Hemolysis (0.5 µM): 3.035%
- Hemolysis (1 µM): 8.361%
- Hemolysis (2 µM): 17.031%
- Hemolysis (4 µM): 42.344%
- Hemolysis (8 µM): 94.219%
- Hemolysis (16 µM): 102.35%
- Hemolysis (32 µM): 99.08%

From PMC11484942, “Rumicidins are a family of mammalian host-defense peptides plugging the 70S ribosome exit tunnel” (Nature Communications, 2024)
